Measurements taken from patent US20110269680A1 (PANACEA BIOTEC LIMITED, priority 2008, published 2011).

Protein sequences, listed by entry. Tags and fused reporters are not part of them.
UniProt P27487, whole entry, species assumed: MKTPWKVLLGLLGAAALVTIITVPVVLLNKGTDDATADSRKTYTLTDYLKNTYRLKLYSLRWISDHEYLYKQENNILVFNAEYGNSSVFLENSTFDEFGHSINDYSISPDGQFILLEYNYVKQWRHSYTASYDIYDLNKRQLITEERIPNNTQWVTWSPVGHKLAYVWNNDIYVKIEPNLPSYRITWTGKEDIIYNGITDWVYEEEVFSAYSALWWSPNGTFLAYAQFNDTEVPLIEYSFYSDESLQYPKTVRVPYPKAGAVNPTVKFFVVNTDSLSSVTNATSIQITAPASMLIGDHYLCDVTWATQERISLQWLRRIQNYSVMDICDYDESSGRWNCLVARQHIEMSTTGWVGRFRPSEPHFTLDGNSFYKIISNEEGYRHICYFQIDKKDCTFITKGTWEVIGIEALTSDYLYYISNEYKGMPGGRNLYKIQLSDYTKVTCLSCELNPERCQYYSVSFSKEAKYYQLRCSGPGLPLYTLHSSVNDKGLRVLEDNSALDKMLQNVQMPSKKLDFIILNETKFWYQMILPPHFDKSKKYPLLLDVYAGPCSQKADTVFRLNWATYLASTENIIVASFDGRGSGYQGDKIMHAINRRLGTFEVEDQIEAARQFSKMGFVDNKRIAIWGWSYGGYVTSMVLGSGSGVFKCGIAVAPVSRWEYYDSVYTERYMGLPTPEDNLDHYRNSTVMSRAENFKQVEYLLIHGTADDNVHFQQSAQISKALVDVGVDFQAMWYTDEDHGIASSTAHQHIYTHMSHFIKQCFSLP

Molecular target: T1, DPP-IV (Homo sapiens, UniProt P27487)
T1 construct: purchased Sigma-Aldrich
Assay: DPP-IV resistant assay
Type: in vitro ADME
Conditions: 20 μM peptide, 60 mU/2 ml DPP-IV, room temperature (22-24° C.), 20 mM Tris HCl pH 8.0, RP-HPLC
Experimental: 20 μM of peptides of the present invention (Sequence IDs—01, 02, 03, 04, 05, 06, 11, 12 and 13) were incubated with 60 mU/2 ml of DPP-IV (Sigma-Aldrich) enzyme at room temperature (22-24° C.) in 20 mM Tris HCl buffer, pH 8.0. The aliquots were analyzed for the amount of undegraded peptide concentration at different time intervals by RP-HPLC. The peak area integration was used to determine the amount of undegraded peptide (U.S. Pat. No. 7,067,488). T1/2 of each peptide was determined from the graph plotted between peak area of undegraded peptide vs. time. The peak area of DPP-IV untreated peptide in above mentioned buffer condition of same concentration was considered as time zero. […]

- T1/2 in Hrs: 2.84 h
Substance: GLP-1(7-37) [GLP-1(7-37) parent, reference compound]
